Measurements published in PubChem BioAssay AID651725 (National Center for Advancing Translational Sciences (NCATS), 2012).
This is a selection; strong and weak results do not stand in their true shares. Activity calls are given as the source filed them. Rule as the data show it: active = activity change below about -65%; inconclusive = mostly about -30% to -63%; inactive = weaker than that.

The chains behind the UniProt entries cited, without tags or fusion partners.
UniProt Q15475, whole entry: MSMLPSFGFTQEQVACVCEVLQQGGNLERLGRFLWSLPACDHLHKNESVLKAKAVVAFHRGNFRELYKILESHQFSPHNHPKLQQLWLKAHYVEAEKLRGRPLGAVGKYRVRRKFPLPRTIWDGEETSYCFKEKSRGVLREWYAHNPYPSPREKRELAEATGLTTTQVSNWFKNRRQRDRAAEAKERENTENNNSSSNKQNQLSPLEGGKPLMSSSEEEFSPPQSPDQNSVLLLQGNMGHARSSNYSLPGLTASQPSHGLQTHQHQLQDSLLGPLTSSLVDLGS

target: Homeobox protein SIX1 (Homo sapiens) + Protein phosphatase EYA2 (Homo sapiens) (UniProt Q15475+O00167); experiment: qHTS Assay for Inhibitors of the Six1/Eya2 Interaction; conditions: AlphaScreen GST-Six1/His-Eya2 binding, biochemical; active compounds read low
Summary of the method: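 Six1/Eya2 binding was read as AlphaScreen signal after compounds were pinned into GST-Six1 plus His-tagged Eya2 (5X stock 250/500 nM) in pH 8.0 Tris/NaCl/TCEP buffer, beads added, then incubated 1 h, 37 C, dark.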
% is scaled to controls: 0 for no effect and ±100 for the full control effect.

Row | SMILES | activity change
1 | COc1ccc(Cl)cc1C(=O)NCC1(N2CCOCC2)CCCCC1 | inactive: 23.8%
2 | O=C(NCC1(N2CCCCC2)CCCCC1)c1ccc(=O)[nH]c1 | inactive: 8.13%
3 | CCCCn1nnnc1C(CC)N1CCC(n2c(=O)[nH]c3ccccc32)CC1 (centres undefined) | inactive: -7.06%
4 | O=C(NCC1(N2CCCCC2)CCCCC1)c1cccs1 | inactive: 12.8%
5 | CCCCn1nnnc1C(c1cccs1)N1CCC(n2c(=O)[nH]c3ccccc32)CC1 (centres undefined) | inactive: 5.39%
6 | COc1ccc(C(=O)NCC2(N3CCCCC3)CCCCC2)cc1 | inactive: -4.59%
7 | COc1ccc(C(=O)NCC2(N3CCCCC3)CCCCC2)c(OC)c1OC | inactive: -6.46%
8 | CC(C)(C)OC(=O)N1CCC(N(C(=O)c2ccccc2)c2ccc(F)cc2)CC1 | inactive: 7.17%
9 | CCC(c1nnnn1C1CCCC1)N1CCC(n2c(=O)[nH]c3ccccc32)CC1 (centres undefined) | inactive: -10.2%
10 | CSc1ccccc1C(=O)NCC1(N2CCCCC2)CCCCC1 | inactive: -4.73%
11 | Cc1cccc(NC2(C#N)CCN(Cc3ccccc3)CC2)c1 | inactive: 2.22%
12 | O=c1[nH]c2ccccc2n1C1CCN(C(c2ccccc2)c2nnnn2C2CCCCC2)CC1 (centres undefined) | inactive: -14.2%
13 | O=c1[nH]c2ccccc2n1C1CCN(C(c2cccc3ccccc23)c2nnnn2C2CCCC2)CC1 (centres undefined) | inactive: -12.6%
14 | CCOC(=O)N1CCC(Nc2cccc(C)c2)CC1 | inactive: 3.58%
15 | COc1cc(C(=O)NCC2(N(C)C)CCCCC2)ccc1OC(F)F | inactive: 9.97%
16 | CCOc1ccc(C)cc1CN(CCCl)CCCl | inactive: 14.2%
17 | CC(C)(C)n1nnnc1C(c1ccccc1)N1CCC(n2c(=O)[nH]c3ccccc32)CC1 (centres undefined) | inactive: -12.7%
18 | O=C1CCN(Cc2ccccc2)CC1 | inactive: -0.565%
19 | CCCCOc1ccc(C(=O)NCC2(N3CCOCC3)CCCCC2)cc1 | inactive: 4.66%
20 | O=P1(N(CCCl)CCCl)SCCCS1 | inactive: 7.22%
21 | CCCCn1nnnc1C(c1cc2ccccc2o1)N1CCC(n2c(=O)[nH]c3ccccc32)CC1 (centres undefined) | inactive: -20.6%
22 | O=C(NCC1(N2CCCCC2)CCCCC1)c1ccc(F)cc1 | inactive: 2.61%
23 | CCOC(=O)N1CCC(Nc2ccc(F)cc2)CC1 | inactive: 4.61%
24 | COc1ccc(NC2CCN(CCc3ccccc3)CC2)c(OC)c1 | inactive: -22.4%
